Assay results taken from US20240122893A1 (priority 2021, published 2024).

Legend:
SARS-CoV-2/USA/WI1/2020 = settings: 30 mg/kg daily; P=0.01
SARS-CoV-2 = assay: CPE inhibition assay, SARS-CoV-2 strains in Vero C1008 cells; assay type: cell-based

**Q.** How did the “SARS-CoV-2 spike protein immunostaining, % lung area, fold lower than infected untreated” value (SARS-CoV-2/USA/WI1/2020) turn out when `C[S+]([O-])CCCCN=C=S` (centres unmarked) [SFN, sulforaphane] was run?
**A.** 4.4 × and 4.41 ×

**Q.** What about the “TI50, therapeutic index (virus selectivity)” value (SARS-CoV-2) of the same compound?
**A.** 7

“And” between values parts separate entries of the source, which are not always exact repeats. Equal entries are not always repeated.
